Legend:
lipoxin transport system = test: Irreversible inhibition of [3H]LXA4 influx after pretreatment of neutrophils with sulfhydryl-reactive agents; assay type: cell-based, human; conditions: 0.25 mM, pretreatment 30 min at 4° C., washed, influx at 37° C.; listed as NBD-CL
[1] = tested on: H+ +lactate- cotransporter; conditions: cited from earlier work

## O=[N+]([O-])c1ccc(Cl)c2nonc12
Lipoxin transport system
  % Inhibition of Transport (irreversible): ~ 20%
[1]
  effect on H+ +lactate- cotransport / lactic acid fluxes: completely blocked
